In patent US7109329B2, “Neurologically active compounds and compounds with multiple activities” (priority 1988, dated 2006):

Assay: Brain and core temperature of treated rats in a room at 4°–5°
Format: in vivo, Sprague-Dawley rats
Conditions: 12 mg/kg IP

N=C(N)N/N=C/c1c(Cl)cccc1Cl [guanabenz]
colonic (core) temperature after 15 minutes: approximately 24 °C
colonic (core) temperature after 22 minutes: 22 °C
colonic (core) temperature after 30 minutes: 20 °C
colonic (core) temperature after 45 minutes: 17 °C
